Experimental data from patent US20070098735A1, “Methods for the Elimination of Pathogens and Other Particulate Agents” (priority 2005, published 2007).

Tests used:
[1] = system: Murine macrophage lines (RAW264.7, J774.A1 or RAW264NO-); assay: Phagocytosis assay in vitro (uptake of Alexa Fluor 488-labeled particles); format: cell-based; details: equimolar to HSP70 100 μg/ml; BSA 100 μg/ml; concavalin A 6 μg/ml; adjuvants 10 μl/well; ADP, ATP 3 mM
Procedure: Phagocytosis Assay in vitro. RAW 264.7, RAW264.7 (NO-) and J774A.1 cells were cultured in DMEM or RPMI (RAW NO-) with 10% FCS, harvested, and washed. 3×10^5 cells/well were incubated in serum-free Earle's minimal essential medium (EMEM) in a 24-well plate for 1 hour at 37° C. Alexa Fluor® 488-labeled particles (inert polystyrene microspheres; or yeast, Saccharomyces cerevisiae or Gram-negative bacteria, Escherichia coli, 40 particles/macrophage) were added and co-incubated in a dark environment for 60 minutes in serum free EMEM with or without HSPs, LPS, or control proteins. At the end of 60 minutes incubation, the plate was covered in a dark container on ice. Specific measures were taken to exclude the fluorescence that resulted from particles that were outside of the cell or sticking to the surface of the cell. […] Specifically, trypan blue (0.8 mg/ml) was added for 60 seconds and plates were analyzed immediately using FluorImager SI (Molecular Dynamics/Amersham). Since the emission of Alexa Fluor® 488, about 519 nm at an excitation of about 490 nm, falls within the absorbance range of trypan blue (475-675 nm), the fluorescence of the sample only represents the intracellular fluorescence. External or surface-bound fluorescence is quenched. Using Student's t test, the results were analyzed and P-values were calculated. […]

[2] = system: full thickness surgical wounds on the dorsum of BALB/cJ mice; assay: Closure of full thickness surgical wounds, percent wound closure; format: in vivo; details: day 2 post surgery
Procedure: Surgery and Treatment. Mice were anesthetized using Ketamine (2.0 mg/mouse) and Xylazine (0.1 mg/mouse) were administered intraperitoneally (IP) and the dorsal skin was shaved. After sterile prepping of the area, a full thickness circular wound, 8 mm diameter, was made on the dorsal skin using a disposable biopsy punch (Miltex Inc, York, Pa.) on the midline of the dorsum approximately at the iliac crest. The mice were then randomly assigned into the treatment groups. Initial wound measurements were performed while the mice were still anesthetized. Mice were then treated on days 0, 2, 4, and 6 unless otherwise specified. All agents used as treatment were diluted in 0.5 ml of PBS and injected using a 25-gauge needle in the subcutaneous space in the nape of the neck. […]
Measurements and Analysis. […] The wound surface area was determined by measuring the craniocaudal and lateromedial distances using vernier calipers in perpendicular axis on days 0, 2, 4, 6, 9, and 11 postoperatively unless noted. Changes in wound area were expressed as percent wound closure. […]
Full thickness surgical wounds were created on the dorsum of BALB/cJ mice as described in Methods. […] The wounds were measured on days 0, 2, 4, 6, 9, 11 unless otherwise noted. Wounds were measured serially, percent wound closure was calculated and plotted against time in order to quantitate the rate of healing by secondary intention. […]

[3] = system: full thickness wounds of naïve mice; assay: Adoptive transfer of pre-treated RAW 264.7 macrophages into wounded mice, wound closure; format: in vivo; details: 400,000 macrophages pre-treated at 30 μg/dose; day 2 post surgery
Procedure: Macrophage Cell Culture, Pre-treatment, and Adoptive Transfer. RAW 264.7 macrophages (ATCC) were grown as described by ATCC. Cells were harvested by gently scraping them from the cell culture flasks, centrifuged and washed once in cultured grade PBS. Cell viability was confirmed by trypan blue exclusion and 10^7 cells were treated with either 30 μg/0.5 ml of HSP70, lipopolysaccharide (LPS), mouse serum albumin (MSA), or in PBS at 4° C. for 1 hour. They were then washed 3 times with PBS, and were re-suspended to achieve a concentration of 400,000, 40,000, or 4,000 cells per 0.5 ml PBS. Adoptive transfer of these cells was performed by subcutaneous injections in the nape of the neck using a 25-gauge needle in mice that were wounded as previously described. Adoptive transfers were given on days 0, 2 and 4 post-operatively.
Macrophages were treated in vitro with either HSPs or non-HSP controls and transferred into naïve wounded mice (as described in Materials and Methods) to test if HSPs could in part mediate some of their activity through macrophages. Briefly RAW264.7 cells were treated in vitro with either of HSP70, MSA or LPS, (each at 30 μg/dose) or buffer 1 hour, washed 3 times and administered into naïve mice that had full thickness wounds (as indicated in FIG. 9A) on days 0, 2, and 4 postoperatively. […]

RAW 264.7 macrophages = assay: In vitro macrophage phagocytosis of wound debris; format: cell-based, murine; details: RAW264.7, labeled wound debris
Procedure: In vitro Macrophage Phagocytosis of Wound Debris. Fresh wounds were harvested from female BALB/cJ mice 6-8 weeks of age. Wounds were cut into small pieces in PBS with PMSF and dounced on ice. Large debris was removed by straining the wound lysate through a 0.7 μM mesh strainer then centrifuged at 1,200 rpm for 10 minutes. The pellet was washed twice with PBS, labeled with Alexafluor488 following manufacture's protocol (Molecular Probes, Eugene, Oreg.). The labeled wound debris was administered to 3×10^5 RAW 264.7 macrophages in serum-free medium in 24-well plates. Phagocytosis was performed either at 37° C. or 4° C. for 30 minutes after which 0.8 mg/ml Trypan blue was used to quench the fluorescence of the non-internalized wound debris. The plates analyzed with FluorImager plate reader.
Macrophage-mediated phagocytosis has been known to play a fundamental role in wound healing by clearing debris and neutrophils. Therefore it was tested whether HSP70 mediates some of its effects on wound healing through increased macrophage phagocytosis. […] Data is plotted as average mean fluorescence intensity from triplicate samples. *P values are the significant difference of mean fluorescence intensity at 37° C. compared to 4° C. in a treatment group. **P values are the significant differences of mean fluorescence intensity of HSP treated macrophages compared to medium treated macrophages. […]

Substance: mouse serum albumin [MSA]
- uptake of labeled S. cerevisiae as compared to treatment with HSP70 (specificity controls) [1]: None of control proteins used enhanced uptake
- wound healing on day 2 ([2]; 30 μg/dose): 22%
- wound closure of non-HSP controls compared to PBS control [2]: not significantly different to the PBS control
- wound healing on day 2 after adoptive transfer of pre-treated macrophages [3]: 26%
- mean fluorescence intensity compared to medium control (RAW 264.7 macrophages): not significantly different to the medium control
